The source of these data is ChEMBL document CHEMBL3769345, “Rapid Synthesis of Boc-2',6'-dimethyl-l-tyrosine and Derivatives and Incorporation into Opioid Peptidomimetics” (ACS Med Chem Lett, 2015).

Chains of the proteins cited; added tags and fusions are not shown.
UniProt P33533, whole entry: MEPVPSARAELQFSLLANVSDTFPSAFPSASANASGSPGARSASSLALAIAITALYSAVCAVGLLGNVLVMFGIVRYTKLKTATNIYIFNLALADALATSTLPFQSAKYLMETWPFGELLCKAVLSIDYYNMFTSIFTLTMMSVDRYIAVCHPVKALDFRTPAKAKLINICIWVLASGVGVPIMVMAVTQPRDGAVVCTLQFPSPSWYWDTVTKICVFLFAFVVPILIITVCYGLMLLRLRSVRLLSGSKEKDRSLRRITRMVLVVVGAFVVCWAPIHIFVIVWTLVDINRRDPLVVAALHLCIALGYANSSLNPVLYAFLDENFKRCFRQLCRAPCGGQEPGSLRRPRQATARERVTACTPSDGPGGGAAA

The assay concerns the target Delta-type opioid receptor (Rattus norvegicus) (UniProt P33533). Nature of the assay: Agonist activity at rat DOR expressed in rat C6 cells at 10 uM after 1 hr by [35S]GTPgammaS binding assay relative to DPDPE. It is filed as functional, cell-based. On the technique in general: GTPγS resists hydrolysis and so accumulates on activated G proteins.

Structures are written as SMILES. Calls of active or inactive are those of the source. The calls are words filed in the database; no cut-off is given here.

Take `Cc1cccc(C)c1C[C@H](N)C(=O)N[C@@H]1CCNc2ccc(Cc3ccccc3)cc21`: the max activation result is “inactive”.

As for `Cc1cc(O)ccc1C[C@H](N)C(=O)N[C@@H]1CCNc2ccc(Cc3ccccc3)cc21`, the max activation entry was “inactive”.
